Legend:
[1] = biological target: Alpha-2C adrenergic receptor (Homo sapiens, UniProt P18825); format: functional
[2] = biological target: Alpha-2B adrenergic receptor (Homo sapiens, UniProt P18089)
[3] = biological target: 3',5'-cyclic-AMP phosphodiesterase 4D (Homo sapiens, UniProt Q08499); format: functional
[4] = biological target: Kappa-type opioid receptor (Homo sapiens, UniProt P41145)
[5] = biological target: Delta-type opioid receptor (Homo sapiens, UniProt P41143)
[6] = biological target: 5-hydroxytryptamine receptor 2C (Homo sapiens, UniProt P28335)
[7] = biological target: T1, 5-hydroxytryptamine receptor 1A (Homo sapiens, UniProt P08908); format: functional, cell-based
[8] = biological target: T1, 5-hydroxytryptamine receptor 1A; format: functional, cell-based; remark: listed apart in the source
[9] = biological target: Beta-1 adrenergic receptor (Homo sapiens, UniProt P08588); format: functional
[10] = biological target: D(1A) dopamine receptor (Homo sapiens, UniProt P21728); format: functional, cell-based
[11] = biological target: Muscarinic acetylcholine receptor M1 (Homo sapiens, UniProt P11229); format: functional, cell-based
[12] = biological target: Glutamate receptor ionotropic, NMDA 1 (Rattus norvegicus, UniProt P35439)
[13] = biological target: Sodium-dependent dopamine transporter (Homo sapiens, UniProt Q01959)
[14] = biological target: Sodium-dependent noradrenaline transporter (Homo sapiens, UniProt P23975)
[15] = biological target: T2, Mu-type opioid receptor (Homo sapiens, UniProt P35372)
[16] = biological target: T2, Mu-type opioid receptor; assay: biochemical; format: functional
[17] = biological target: T3, Muscarinic acetylcholine receptor M2 (Homo sapiens, UniProt P08172); format: functional, cell-based
[18] = biological target: T3, Muscarinic acetylcholine receptor M2
[19] = biological target: T3, Muscarinic acetylcholine receptor M2; format: functional, cell-based; remark: listed apart in the source
[20] = biological target: T4, Amine oxidase [flavin-containing] A (Homo sapiens, UniProt P21397); format: functional
[21] = biological target: T4, Amine oxidase [flavin-containing] A; format: functional; remark: listed apart in the source
[22] = biological target: Synaptic vesicular amine transporter (Rattus norvegicus, UniProt Q01827); format: functional
[23] = biological target: D(3) dopamine receptor (Homo sapiens, UniProt P35462)
[24] = biological target: T3, Muscarinic acetylcholine receptor M2; remark: listed apart in the source
[25] = biological target: Voltage-gated inwardly rectifying potassium channel KCNH2 (Homo sapiens, UniProt Q12809)
[26] = biological target: T5, Alpha-2A adrenergic receptor (Homo sapiens, UniProt P08913); format: functional, cell-based
[27] = biological target: T5, Alpha-2A adrenergic receptor
[28] = biological target: T5, Alpha-2A adrenergic receptor; remark: listed apart in the source
[29] = biological target: T5, Alpha-2A adrenergic receptor; remark: listed apart in the source
[30] = biological target: T5, Alpha-2A adrenergic receptor; format: functional, cell-based; remark: listed apart in the source
Also: assay procedure not described here.

The chains behind the UniProt entries cited, without tags or fusion partners. Where a name states a change or a piece, a line headed by the entry shows the natural chain unless it says otherwise.
UniProt P18825, whole entry: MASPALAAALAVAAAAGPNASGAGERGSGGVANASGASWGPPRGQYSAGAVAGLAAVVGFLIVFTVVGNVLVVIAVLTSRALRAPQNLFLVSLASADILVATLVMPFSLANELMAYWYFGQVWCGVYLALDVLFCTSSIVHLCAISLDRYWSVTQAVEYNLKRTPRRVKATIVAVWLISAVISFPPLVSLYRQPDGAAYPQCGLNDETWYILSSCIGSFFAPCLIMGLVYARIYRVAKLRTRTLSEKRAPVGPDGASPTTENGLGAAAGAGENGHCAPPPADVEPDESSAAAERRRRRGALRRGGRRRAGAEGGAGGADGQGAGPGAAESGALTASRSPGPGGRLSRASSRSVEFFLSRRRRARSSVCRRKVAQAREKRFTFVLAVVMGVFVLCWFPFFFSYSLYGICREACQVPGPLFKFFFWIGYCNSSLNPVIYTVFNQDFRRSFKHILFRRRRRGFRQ
UniProt P18089, whole entry: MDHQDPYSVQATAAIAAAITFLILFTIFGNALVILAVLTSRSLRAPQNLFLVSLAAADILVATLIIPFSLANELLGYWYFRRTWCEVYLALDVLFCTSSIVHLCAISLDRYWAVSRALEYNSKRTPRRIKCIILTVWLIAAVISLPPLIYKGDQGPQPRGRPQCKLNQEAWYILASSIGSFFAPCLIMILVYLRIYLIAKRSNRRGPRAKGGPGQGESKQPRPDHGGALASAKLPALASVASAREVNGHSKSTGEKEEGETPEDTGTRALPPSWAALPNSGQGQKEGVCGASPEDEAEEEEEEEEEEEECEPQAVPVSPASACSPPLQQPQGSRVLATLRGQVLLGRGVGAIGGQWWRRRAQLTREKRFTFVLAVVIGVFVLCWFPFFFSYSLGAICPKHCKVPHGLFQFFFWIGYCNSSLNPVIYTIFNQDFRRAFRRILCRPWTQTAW
UniProt Q08499: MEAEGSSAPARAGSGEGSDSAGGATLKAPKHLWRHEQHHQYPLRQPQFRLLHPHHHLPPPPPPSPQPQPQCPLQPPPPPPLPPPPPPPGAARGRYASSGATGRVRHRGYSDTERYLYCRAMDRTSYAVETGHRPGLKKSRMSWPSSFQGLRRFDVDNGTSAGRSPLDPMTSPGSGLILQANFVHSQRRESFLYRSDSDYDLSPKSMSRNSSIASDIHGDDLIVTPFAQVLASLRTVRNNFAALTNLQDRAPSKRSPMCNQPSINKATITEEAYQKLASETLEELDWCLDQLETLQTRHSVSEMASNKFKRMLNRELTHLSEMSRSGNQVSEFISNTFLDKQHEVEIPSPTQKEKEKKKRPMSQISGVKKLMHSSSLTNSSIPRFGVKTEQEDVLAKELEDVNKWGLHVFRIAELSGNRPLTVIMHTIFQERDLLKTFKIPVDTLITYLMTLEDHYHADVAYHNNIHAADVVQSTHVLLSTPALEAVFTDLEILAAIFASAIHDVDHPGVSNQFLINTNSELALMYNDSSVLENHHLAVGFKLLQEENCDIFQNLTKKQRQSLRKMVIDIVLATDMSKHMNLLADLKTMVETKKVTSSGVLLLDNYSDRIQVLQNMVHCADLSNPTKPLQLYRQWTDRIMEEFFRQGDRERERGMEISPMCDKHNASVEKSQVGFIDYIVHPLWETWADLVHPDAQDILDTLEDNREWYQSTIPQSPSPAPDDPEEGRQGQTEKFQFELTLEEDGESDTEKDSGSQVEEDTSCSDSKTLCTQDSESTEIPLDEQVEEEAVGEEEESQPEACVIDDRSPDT
UniProt P41145: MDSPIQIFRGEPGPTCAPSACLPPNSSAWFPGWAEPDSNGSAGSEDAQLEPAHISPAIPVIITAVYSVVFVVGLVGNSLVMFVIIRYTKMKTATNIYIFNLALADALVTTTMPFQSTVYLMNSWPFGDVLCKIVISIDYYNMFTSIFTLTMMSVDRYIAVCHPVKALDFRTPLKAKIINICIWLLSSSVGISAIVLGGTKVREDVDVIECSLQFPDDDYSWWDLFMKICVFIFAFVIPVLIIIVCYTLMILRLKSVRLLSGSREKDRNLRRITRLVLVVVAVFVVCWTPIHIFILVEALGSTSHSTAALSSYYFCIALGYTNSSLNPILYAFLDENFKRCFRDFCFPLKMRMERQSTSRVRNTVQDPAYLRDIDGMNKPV
UniProt P28335: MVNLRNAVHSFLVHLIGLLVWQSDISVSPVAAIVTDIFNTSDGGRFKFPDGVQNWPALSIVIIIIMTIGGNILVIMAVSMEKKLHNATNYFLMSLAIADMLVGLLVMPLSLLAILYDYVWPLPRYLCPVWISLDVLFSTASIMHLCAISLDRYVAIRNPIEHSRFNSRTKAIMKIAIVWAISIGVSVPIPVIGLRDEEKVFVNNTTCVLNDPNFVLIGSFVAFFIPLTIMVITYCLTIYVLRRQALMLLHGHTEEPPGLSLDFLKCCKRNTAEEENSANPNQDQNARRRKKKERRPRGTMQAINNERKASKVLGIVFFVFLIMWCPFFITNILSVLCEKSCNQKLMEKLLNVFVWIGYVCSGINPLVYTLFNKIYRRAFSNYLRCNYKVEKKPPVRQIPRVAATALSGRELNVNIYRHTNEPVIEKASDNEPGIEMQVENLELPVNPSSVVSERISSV
UniProt P08588, whole entry: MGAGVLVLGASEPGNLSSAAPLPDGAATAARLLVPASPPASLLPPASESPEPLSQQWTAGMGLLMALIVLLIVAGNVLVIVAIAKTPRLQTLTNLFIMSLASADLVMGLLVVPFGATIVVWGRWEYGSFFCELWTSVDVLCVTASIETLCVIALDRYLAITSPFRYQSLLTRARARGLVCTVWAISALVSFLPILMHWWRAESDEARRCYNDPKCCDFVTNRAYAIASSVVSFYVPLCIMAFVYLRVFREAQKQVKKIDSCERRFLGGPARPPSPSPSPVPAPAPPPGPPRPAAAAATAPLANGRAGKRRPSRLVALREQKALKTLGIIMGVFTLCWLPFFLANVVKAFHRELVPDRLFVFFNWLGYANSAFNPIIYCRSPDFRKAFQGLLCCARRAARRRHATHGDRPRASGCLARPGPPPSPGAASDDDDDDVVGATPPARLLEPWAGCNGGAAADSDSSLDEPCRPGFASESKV
UniProt P11229: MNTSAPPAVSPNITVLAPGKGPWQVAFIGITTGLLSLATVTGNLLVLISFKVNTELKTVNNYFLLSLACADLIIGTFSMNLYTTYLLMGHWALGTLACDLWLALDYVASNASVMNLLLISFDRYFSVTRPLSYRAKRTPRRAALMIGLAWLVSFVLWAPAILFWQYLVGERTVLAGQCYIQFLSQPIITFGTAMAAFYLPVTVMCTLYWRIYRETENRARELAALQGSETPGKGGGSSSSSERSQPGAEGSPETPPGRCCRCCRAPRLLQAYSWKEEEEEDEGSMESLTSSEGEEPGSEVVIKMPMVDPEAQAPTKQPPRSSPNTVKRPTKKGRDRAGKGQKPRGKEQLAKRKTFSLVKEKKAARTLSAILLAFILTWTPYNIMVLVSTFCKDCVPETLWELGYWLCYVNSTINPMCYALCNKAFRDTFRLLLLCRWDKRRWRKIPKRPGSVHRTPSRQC
UniProt Q01959, whole entry: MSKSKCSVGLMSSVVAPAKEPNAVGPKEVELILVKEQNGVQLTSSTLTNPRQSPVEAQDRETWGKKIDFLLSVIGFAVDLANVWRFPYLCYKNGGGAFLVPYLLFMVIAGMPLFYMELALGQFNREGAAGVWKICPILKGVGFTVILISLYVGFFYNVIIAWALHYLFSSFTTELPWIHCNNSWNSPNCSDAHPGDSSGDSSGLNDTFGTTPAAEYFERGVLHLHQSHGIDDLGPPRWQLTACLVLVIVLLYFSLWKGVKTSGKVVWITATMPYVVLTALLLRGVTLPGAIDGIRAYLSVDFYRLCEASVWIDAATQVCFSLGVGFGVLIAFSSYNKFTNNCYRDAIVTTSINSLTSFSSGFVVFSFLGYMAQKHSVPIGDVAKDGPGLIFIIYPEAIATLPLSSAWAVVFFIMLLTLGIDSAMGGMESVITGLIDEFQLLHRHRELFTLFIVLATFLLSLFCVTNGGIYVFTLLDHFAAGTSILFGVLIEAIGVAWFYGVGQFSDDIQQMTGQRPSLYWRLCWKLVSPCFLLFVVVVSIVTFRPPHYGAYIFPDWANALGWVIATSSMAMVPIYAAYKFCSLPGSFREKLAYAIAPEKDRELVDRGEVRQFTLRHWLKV
UniProt P23975, whole entry: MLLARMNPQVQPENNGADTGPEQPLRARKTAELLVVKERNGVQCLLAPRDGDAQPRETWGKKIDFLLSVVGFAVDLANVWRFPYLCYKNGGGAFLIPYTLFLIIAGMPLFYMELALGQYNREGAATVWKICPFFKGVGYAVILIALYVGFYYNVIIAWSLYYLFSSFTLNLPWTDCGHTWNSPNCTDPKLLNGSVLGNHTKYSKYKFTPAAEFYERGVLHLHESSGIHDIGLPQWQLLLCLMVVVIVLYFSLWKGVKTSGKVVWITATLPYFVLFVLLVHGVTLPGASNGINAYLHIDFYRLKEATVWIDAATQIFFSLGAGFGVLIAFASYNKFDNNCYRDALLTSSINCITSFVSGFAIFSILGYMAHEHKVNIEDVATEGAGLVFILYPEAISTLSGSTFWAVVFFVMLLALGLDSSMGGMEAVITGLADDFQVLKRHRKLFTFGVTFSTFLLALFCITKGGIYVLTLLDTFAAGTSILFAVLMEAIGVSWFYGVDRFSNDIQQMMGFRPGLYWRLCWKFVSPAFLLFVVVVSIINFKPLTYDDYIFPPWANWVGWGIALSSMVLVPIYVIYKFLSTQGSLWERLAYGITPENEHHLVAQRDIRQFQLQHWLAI
UniProt P35372, whole entry: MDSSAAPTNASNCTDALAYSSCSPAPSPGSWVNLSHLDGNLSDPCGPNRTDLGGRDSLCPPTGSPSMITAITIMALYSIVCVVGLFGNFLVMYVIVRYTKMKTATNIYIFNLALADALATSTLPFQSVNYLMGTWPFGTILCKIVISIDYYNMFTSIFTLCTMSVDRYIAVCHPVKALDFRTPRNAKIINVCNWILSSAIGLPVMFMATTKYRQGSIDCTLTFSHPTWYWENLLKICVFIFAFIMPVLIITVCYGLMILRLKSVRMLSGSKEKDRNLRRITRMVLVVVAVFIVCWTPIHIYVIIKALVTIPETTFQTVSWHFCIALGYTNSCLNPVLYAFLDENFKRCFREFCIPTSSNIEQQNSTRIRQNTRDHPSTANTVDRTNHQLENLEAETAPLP
UniProt P08172, whole entry: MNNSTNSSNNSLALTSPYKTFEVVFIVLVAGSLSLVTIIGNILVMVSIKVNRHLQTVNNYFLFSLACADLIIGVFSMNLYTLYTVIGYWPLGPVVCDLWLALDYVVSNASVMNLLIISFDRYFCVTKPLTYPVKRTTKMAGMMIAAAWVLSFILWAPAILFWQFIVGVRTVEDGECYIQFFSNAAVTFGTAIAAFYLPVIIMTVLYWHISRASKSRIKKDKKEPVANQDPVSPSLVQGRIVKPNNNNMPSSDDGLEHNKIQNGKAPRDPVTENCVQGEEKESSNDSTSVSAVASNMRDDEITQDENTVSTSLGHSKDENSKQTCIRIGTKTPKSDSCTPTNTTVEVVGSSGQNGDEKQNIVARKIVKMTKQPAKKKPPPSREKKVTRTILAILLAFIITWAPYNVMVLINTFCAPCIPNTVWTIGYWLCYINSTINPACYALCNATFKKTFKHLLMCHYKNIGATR
UniProt P35462, whole entry: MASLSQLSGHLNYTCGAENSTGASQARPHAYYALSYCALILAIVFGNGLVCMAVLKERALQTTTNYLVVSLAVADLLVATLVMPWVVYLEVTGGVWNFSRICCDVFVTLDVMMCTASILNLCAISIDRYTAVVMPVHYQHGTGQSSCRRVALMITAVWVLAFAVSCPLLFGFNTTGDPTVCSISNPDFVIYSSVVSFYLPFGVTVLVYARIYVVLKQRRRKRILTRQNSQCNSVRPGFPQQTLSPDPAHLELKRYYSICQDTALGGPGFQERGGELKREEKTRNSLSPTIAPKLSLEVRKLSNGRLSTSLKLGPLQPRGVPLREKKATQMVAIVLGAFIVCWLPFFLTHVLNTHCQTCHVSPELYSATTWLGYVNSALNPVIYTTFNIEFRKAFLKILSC
UniProt P08913, whole entry: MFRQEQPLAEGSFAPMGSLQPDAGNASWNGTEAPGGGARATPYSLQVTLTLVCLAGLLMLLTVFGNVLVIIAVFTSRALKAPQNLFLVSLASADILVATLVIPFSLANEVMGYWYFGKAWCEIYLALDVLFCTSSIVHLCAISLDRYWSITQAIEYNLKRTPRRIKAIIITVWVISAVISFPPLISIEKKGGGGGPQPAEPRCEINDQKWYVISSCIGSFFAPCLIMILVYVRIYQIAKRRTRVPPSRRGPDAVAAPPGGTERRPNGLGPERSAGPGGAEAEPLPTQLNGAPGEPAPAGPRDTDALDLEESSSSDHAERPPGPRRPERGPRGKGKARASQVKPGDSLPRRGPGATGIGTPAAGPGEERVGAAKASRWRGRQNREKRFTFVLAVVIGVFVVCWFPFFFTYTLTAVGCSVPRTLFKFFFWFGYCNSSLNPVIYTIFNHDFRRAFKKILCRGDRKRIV

SMILES: COc1ccccc1N1CCN(CCCNc2cc(=O)n(C)c(=O)n2C)CC1
- AC50 [1]: 2700 nM
- AC50 [2]: 9800 nM

SMILES: CN1CC(=O)N2[C@H](c3ccc4c(c3)OCO4)c3[nH]c4ccccc4c3C[C@@H]2C1=O
- AC50 [3]: > 30000 nM

SMILES: C=C1CC[C@@]2(O)[C@H]3Cc4ccc(O)c5c4[C@@]2(CCN3CC2CC2)[C@H]1O5
- AC50 [4]: 18 nM
- AC50 [5]: 82 nM

SMILES: COc1ccc2cccc(CCNC(C)=O)c2c1 [AGOMELATINE]
- AC50 [6]: 5200 nM

SMILES: CN1CCc2cccc3c2[C@H]1Cc1ccc(O)c(O)c1-3 [APOMORPHINE]
- AC50 [2]: 2700 nM

SMILES: CNC[C@H](O)c1ccc(O)c(O)c1 [EPINEPHRINE]
- AC50 [7]: > 30000 nM
- AC50 [8]: > 30000 nM
- AC50 [9]: 970 nM
- AC50 [10]: 32 nM

SMILES: C[N+]1(C)CCC(OC(=O)C(O)(c2ccccc2)C2CCCC2)C1 (centres undefined) [GLYCOPYRRONIUM BROMIDE]
- AC50 [11]: > 30000 nM

SMILES: CN(C)CCCN1c2ccccc2CCc2ccccc21 [IMIPRAMINE]
- AC50 [12]: > 10000 nM
- AC50 [13]: > 10000 nM
- AC50 [14]: 83 nM

SMILES: CN1CC[C@]23CCCC[C@H]2[C@H]1Cc1ccc(O)cc13 [LEVORPHANOL]
- AC50 [15]: 6400 nM
- AC50 [16]: 3300 nM

SMILES: CCN(CC)CCNC(=O)c1cc(Cl)c(N)cc1OC [METOCLOPRAMIDE]
- AC50 [17]: > 30000 nM
- AC50 [18]: > 10000 nM
- AC50 [19]: > 30000 nM

SMILES: NNCCc1ccccc1 [PHENELZINE]
- AC50 [20]: 1640 nM
- AC50 [21]: 170 nM

SMILES: COC(=O)[C@H]1[C@H]2C[C@@H]3c4[nH]c5cc(OC)ccc5c4CCN3C[C@H]2C[C@@H](OC(=O)c2cc(OC)c(OC)c(OC)c2)[C@@H]1OC [RESERPINE]
- AC50 [22]: 1 nM

SMILES: CCN1CCCC1CNC(=O)c1cc(S(N)(=O)=O)ccc1OC (centres undefined) [SULPIRIDE]
- AC50 [23]: 110 nM

SMILES: CCN(CC)C(=O)N[C@H]1C[C@@H]2c3cccc4[nH]cc(c34)C[C@H]2N(C)C1 [TERGURIDE]
- AC50 [2]: 5.5 nM

SMILES: CCCCCCOc1nsnc1C1=CCCN(C)C1 [XANOMELINE]
- AC50 [17]: 580 nM
- AC50 [24]: 111 nM
- AC50 [19]: > 10000 nM

SMILES: O=C1Cc2cc(CCN3CCN(c4nsc5ccccc45)CC3)c(Cl)cc2N1 [ZIPRASIDONE]
- AC50 [25]: 1230 nM
- AC50 [26]: > 10000 nM
- AC50 [27]: 895 nM
- AC50 [28]: 900 nM
- AC50 [29]: 3150 nM
- AC50 [30]: > 10000 nM

From ChEMBL document CHEMBL5291721, “A preclinical secondary pharmacology resource illuminates target-adverse drug reaction associations of marketed drugs” (Nat Commun, 2023)
